Source: PubChem BioAssay
GIV-Gai inh = inhibitors of GIV GBA-motif binding to rat Galpha-i3; P08753; Galpha-i3/FITC-GIV peptide fluorescence polarization, 90 min; stronger effect = lower value; scaled: aluminum fluoride 0%, vehicle 100%; percent of control (FP), % (no concentration beside the values); actives 0.42% (n = 210,000); AID 1224905;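 active means replicate mean at 85% of control or lower, very high polarization wells dropped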;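 further: wells of about 15 µL received 100 nL stock; the first replicate is given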
HCMV NEC inh = inhibitors of HCMV UL50-UL53 nuclear egress complex interaction; HTRF UL50-UL53 interaction, normalized percent inhibition; inhibition, % (test concentration not listed); 190,000 compounds, 0.15% hits; AID 1918969; in the data active = inhibition above about 27%, passing the limit was not always enough
Of the large screens only hits and unclear results are named; the others gave an inactive call. The list is not random: actives were taken first. Their share in the collection is about 0.46%.

CN(C)c1ccc(N=Cc2nc(-c3ccccc3)oc2O)cc1	GIV-Gai inh -24 (no result: HCMV NEC inh)
CN(C)c1ccc(N=Cc2nc(-c3ccccc3)oc2OC(=O)c2ccccc2)cc1	none (no result: GIV-Gai inh)
Cn1c(SCC(=O)O)nc2ccccc21	none
Cc1ccc(N2CC(c3nc(-c4cccc(NC(=O)NC(C)C)c4)no3)CC2=O)cc1C (configuration not stated)	none
CN(C)c1ccc(/C=C2\CCC(=C3SCCCS3)C2=O)cc1	none (no result: GIV-Gai inh)
CCCN1C/C(=C\c2ccc(N(C)C)cc2)C(=O)/C(=C/c2ccc(N(C)C)cc2)C1	none
COc1cccc2c1CC/C(=C\c1ccc(N(C)C)cc1)C2=O	GIV-Gai inh -69
CC(C)C/C=C1\CC/C(=C\c2ccc(N(C)C)cc2)C1=O	GIV-Gai inh -74
O=C(COC(=O)CCc1c[nH]c2ccccc12)Nc1cc2[nH]c(=O)[nH]c2cc1Br	none (no result: GIV-Gai inh)
Cc1ccc(CS(=O)(=O)Cc2ccc(C(=O)O)o2)cc1	none
Cc1cc(C)c2cc3c(cc2n1)CCN3CC(O)CO (configuration not stated)	GIV-Gai inh -26
CCCSc1nc2cc(C)c(C)cc2n1CC(O)CO (configuration not stated)	none (no result: GIV-Gai inh)
CSC1=NC(C)(C)Cc2c(C)cccc21	none (no result: GIV-Gai inh)
Cc1ccc(/C=C2\SC(=O)NC2=S)o1	GIV-Gai inh 46
Cc1ccc(/C=C2/SC(=S)N(c3ccc(S(N)(=O)=O)cc3)C2=O)o1	none (no result: GIV-Gai inh)
O=C(CCN(/N=C/c1ccco1)C1=NS(=O)(=O)c2ccccc21)NC1CCCCC1	none
Cc1ccc(CSc2nc(-c3cccs3)ccc2C#N)cc1	none
Cc1ccc(CSc2nc(C(=O)O)ccc2C#N)cc1	HCMV NEC inh 54 (no result: GIV-Gai inh)
COc1cc2ccc3c(CCN(C)C)cc(OC)c(OC)c3c2cc1OC	none (no result: HCMV NEC inh)
COc1cc2cc3c4c(cc(OC)c(OC)c4c2cc1OC)CCN3C	HCMV NEC inh 67 (no result: GIV-Gai inh)
O=c1cc(-c2ccccc2)nc(-c2ccccc2)o1	none
CN(C)c1ccc(-c2nc(-c3cccc(I)c3)cc(=O)o2)cc1	GIV-Gai inh -18 (no result: HCMV NEC inh)
N#Cc1nc2c(nc1C#N)-c1ccccc1C2=O	none
O=C1c2ccccc2-c2nc3nnnn3nc21	HCMV NEC inh 103 (no result: GIV-Gai inh)
O=C(CSc1cccc2cccnc12)Nc1cccc(C(F)(F)F)c1	none (no result: GIV-Gai inh)
CCOC(=O)C1=C(C)N=c2s/c(=C\c3ccc(O)c(Br)c3)c(=O)n2C1c1ccc(OC)c(OC)c1 (configuration not stated)	GIV-Gai inh 71
CCOC(=O)C1=C(C)N=c2s/c(=C\c3ccc(O)c(Br)c3)c(=O)n2C1c1ccc(OC)cc1 (configuration not stated)	none
CCn1c(/C=N/NC(=O)Cc2ccccc2)nc2ccccc21	none
COc1ccc(NC(=O)c2sc3nc(-c4ccc(OC)cc4)cc(C(F)(F)F)c3c2N)cc1	none
Nc1c(C(=O)Nc2ccc(F)cc2)sc2nc(-c3cccs3)cc(C(F)(F)F)c12	GIV-Gai inh -12
Nc1ccc2c3c(cccc13)C(=O)C=C2	GIV-Gai inh -30, HCMV NEC inh 57
NS(=O)(=O)c1ccc2c3c(cccc13)C(=O)N2	none (no result: GIV-Gai inh)
Cc1ccc(N2CC(C(=O)N3CCC(C(=O)Nc4cccnc4)CC3)CC2=O)cc1 (configuration not stated)	none
CCC(=O)N(C)/C=C1\Sc2ccccc2C1=O	none
O=CN(/C=C1\Sc2ccccc2C1=O)c1cccc2ccccc12	GIV-Gai inh -0.2
CCCN1C(=O)/C(=C/c2ccc(O)c(OC)c2)SC1=S	GIV-Gai inh -34
COC(=O)CN1C(=O)C(=Cc2ccc(N(C)C)cc2)SC1=S	GIV-Gai inh -42 (no result: HCMV NEC inh)
CCOC(=O)CN1C(=O)/C(=C/c2ccccc2)SC1=S	none (no result: GIV-Gai inh)
CCN1C(=O)/C(=C\c2ccc(OCC(N)=O)c(OC)c2)SC1=S	none (no result: GIV-Gai inh)
COC(=O)CN1C(=O)S/C(=C\c2ccccc2)C1=O	none
COC(=O)CN1C(=O)/C(=C\c2ccc(O)cc2)SC1=S	GIV-Gai inh -42 (no result: HCMV NEC inh)
CCc1ccc(C2C3=C(CC(C)(C)CC3=O)Nc3onc(C)c32)cc1 (configuration not stated)	none
CCn1c(=O)c(SCC(=O)NCCc2cccc(OC)c2)nc2ccccc21	none
COCCN1C(=O)/C(=C/c2c(N3CCN(CCO)CC3)nc3ccccn3c2=O)SC1=S	GIV-Gai inh -29
CC(c1ccccc1)N1C(=O)/C(=C\c2c(N3CCN(CCO)CC3)nc3ccccn3c2=O)SC1=S (configuration not stated)	none (no result: HCMV NEC inh)
CC1CCN(c2nc3ccccn3c(=O)c2/C=C2/SC(=S)N(CC3CCCO3)C2=O)CC1 (configuration not stated)	none (no result: HCMV NEC inh)
COCCCN1C(=O)/C(=C/c2c(N3CCN(CCO)CC3)nc3ccccn3c2=O)SC1=S	GIV-Gai inh 23 (no result: HCMV NEC inh)
O=C1/C(=C\c2c(N3CCN(CCO)CC3)nc3ccccn3c2=O)SC(=S)N1CC1CCCO1 (configuration not stated)	GIV-Gai inh 25 (no result: HCMV NEC inh)
Cc1cccn2c(=O)c(/C=C3\SC(=S)N(CC4CCCO4)C3=O)c(N3CCN(C)CC3)nc12 (configuration not stated)	GIV-Gai inh -30
Cc1cccn2c(=O)c(/C=C3\SC(=S)N(Cc4ccccc4)C3=O)c(N3CCN(C)CC3)nc12	none
CCN1CCN(c2nc3ccccn3c(=O)c2/C=C2\SC(=S)N(CC)C2=O)CC1	none
Cc1ccc(-n2nc(C)c3c(=O)n(CC(=O)NCc4ccccc4Cl)ccc32)cc1	none (no result: HCMV NEC inh)
CN(CP(=O)(O)CN1CCOCC1)S(C)(=O)=O	none (no result: GIV-Gai inh)
O=CNC1CCCc2c1[nH]c1ccc(F)cc21 (configuration not stated)	none (no result: GIV-Gai inh)
CC1CCN(CN2C(=O)/C(=C\c3ccc(C(C)(C)C)cc3)SC2=S)CC1	none (no result: HCMV NEC inh)
CC(=O)Oc1ccc(C(=O)Nc2cccc(-c3nc4cc(NC(=O)c5ccc(OC(C)=O)cc5)ccc4o3)c2)cc1	none
CCn1c(C)[n+](CC)c2ccc(Cl)cc21	none (no result: GIV-Gai inh)
CN1/C(=C/C=C/C=C/C=[N+](C)c2ccccc2)C(C)(C)c2ccccc21	none (no result: HCMV NEC inh)
CCn1c(/C=C/C=C2\N(C)c3ccccc3C2(C)C)[n+](Cc2ccccc2)c2ccccc21	GIV-Gai inh -32 (no result: HCMV NEC inh)
CN1/C(=C\C(=O)c2ccccc2)C(C)(C)c2ccccc21	none (no result: GIV-Gai inh)
CC[n+]1c(/C=C/C=C2\N(C)c3ccccc3C2(C)C)n(-c2ccccc2)c2cc(Cl)ccc21	GIV-Gai inh -32 (no result: HCMV NEC inh)
CC[n+]1c(/C=C/C=C2\N(C)c3ccccc3C2(C)C)n(-c2ccccc2)c2ccc(C)cc21	GIV-Gai inh -32 (no result: HCMV NEC inh)
Cc1nc2ccccc2c(=O)n1NC(=O)c1cc(-c2ccccc2)nc2ccccc12	none
O=C1S/C(=C\c2ccc(N3CCOCC3)o2)C(=O)N1Cc1ccc(F)cc1	none
O=C(CN1C(=O)S/C(=C\c2ccc(N3CCOCC3)o2)C1=O)Nc1ccccc1F	GIV-Gai inh -19
Cn1c(SCC(=O)NCc2ccccc2)nc2cc(-c3ccccc3)sc2c1=O	none (no result: HCMV NEC inh)
CCOC(=O)N1CCC(NC(=O)C2CCN(c3ncnc4c3sc3cccc(F)c34)CC2)CC1	HCMV NEC inh 53
CCOC(=O)N1CCC(NC(=O)C2CCCN(c3ncnc4c3sc3cccc(F)c34)C2)CC1 (configuration not stated)	none (no result: HCMV NEC inh)
CC1(C)C2CC=C(COCC(O)CN3CCN(S(=O)(=O)c4ccccc4)CC3)C1C2 (configuration not stated)	none (no result: GIV-Gai inh)
CN1C(=O)N(CCOc2ccc(Cl)cc2)C(=O)C1(C)C	none (no result: GIV-Gai inh)
CSc1nc(-c2ccccc2)nc(Nc2ccccc2)c1C#N	none
N#CCc1c(C#N)c(N)nc(Nc2ccccc2)c1C#N	HCMV NEC inh 72 (no result: GIV-Gai inh)
CC(C)Cn1c(=O)[nH]c2c(C(=O)N3CCC4(CC3)OCCO4)snc2c1=O	none (no result: HCMV NEC inh)
